Test results taken from PubChem BioAssay (NCI).
“And” between values parts separate entries of the source, which are not always exact repeats. Equal entries are not always repeated. The entries are a selection whose mix differs from that of the whole data set.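 Single-dose data. Exposure time 48 hours. Values below 10 considered active.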 The source made the active and inactive calls.

Assays:
Assay in all cases: NCI-60 one-dose screen, 48 h (100 = growth as untreated, 0 = no growth, -100 = all killed)
[1] = system: HCT-15 colon; conditions: 10 µM unless noted
[2] = system: HT29 colon; conditions: 10 µM unless noted
[3] = system: SNB-75 CNS; conditions: 10 µM unless noted
[4] = system: SNB-19 CNS; conditions: 10 µM unless noted
[5] = system: U251 CNS; conditions: 10 µM unless noted
[6] = system: PC-3 prostate; conditions: 10 µM unless noted
[7] = system: SK-MEL-5 melanoma; conditions: 10 µM unless noted
[8] = system: UACC-62 melanoma; conditions: 10 µM unless noted
[9] = system: LOX IMVI melanoma; conditions: 10 µM
[10] = system: SK-MEL-28 melanoma; conditions: 10 µM unless noted

Measured: growth

ClCCNC(Cc1ccccc1)c1ccccc1 (stereo not given)
inactive: [1] 91.8% | [2] 87.3% | [3] 79.6% | [4] 96.3% | [5] 97.8% | [6] 89.7% | [7] 97.6% | [8] 94.1% | [9] 89.8% | [10] 107%

Nc1ccc(CCCCOc2ccccc2)cc1
inactive: [1] 103% | [2] 99.6% | [3] 78.2% | [4] 87% | [5] 75.4% | [6] 79% | [7] 88.9% | [8] 83.3% | [9] 96.2% | [10] 109%

CC(Cc1ccccc1)N(CCCl)Cc1ccccc1 (stereo not given)
inactive: [1] 101% | [2] 84.8% | [3] 103% | [4] 114% | [5] 96.3% | [6] 86.8% | [7] 89.8% | [8] 102% | [9] 93.7% | [10] 112%

CCCCCCC(C)OP(O)OC(C)CCCCCC (stereo not given)
inactive: [1] 102% | [2] 118% | [3] 113% | [4] 98.1% | [5] 98.3% | [6] 93.5% | [7] 103% | [8] 96.4% | [9] 98.3% | [10] 120%

CCN(CCCl)Cc1ccccc1
inactive: [1] 96.5% | [2] 92.1% | [3] 76.8% | [4] 103% | [5] 77.2% | [6] 83.3% | [7] 108% | [8] 98.1% | [9] 106% | [10] 104%

CCOP(=O)(NC1CCCCC1)OCC
inactive: [1] 125% | [2] 101% | [3] 100% | [4] 93.2% | [5] 104% | [6] 87.1% | [7] 105% | [8] 88.5% | [9] 78.5% | [10] 107%

O=P1(N(CCCl)CCCl)Nc2ccccc2N1
inactive: [1] 123% | [2] 119% | [3] 88.8% | [4] 112% | [5] 106% | [6] 106% | [7] 107% | [8] 112% | [9] 108% | [10] 116%

N/C(=N\N=C\c1ccc([N+](=O)[O-])o1)N[N+](=O)[O-]
inactive: [1] 87.3% | [2] 108% | [3] 91.9% | [4] 97% | [5] 90.1% | [6] 86.4% | [7] 92.5% | [8] 91.8% | [9] 81.5% | [10] 105%

CN(C)C(=O)NP(=O)(N(C)C)N(C)C
inactive: [1] 98% | [2] 110% | [3] 101% | [4] 108% | [5] 100% | [6] 98.5% | [7] 109% | [8] 104% | [9] 93.8% | [10] 109%

O=[N+]([O-])c1cc(Cl)c(O)c([N+](=O)[O-])c1
inactive: [1] 107% | [2] 95.8% | [3] 109% | [4] 100% | [5] 93.8% | [6] 93.3% | [7] 97% | [8] 93.2% | [9] 105% | [10] 103%

COC(=O)C1=C(C)O[P@](=O)(OC)CCC1c1ccccc1 (stereo not given in full)
inactive: [1] 104% | [2] 100% | [3] 89.6% | [4] 107% | [5] 103% | [6] 93.9% | [7] 110% | [8] 93.8% | [9] 105% | [10] 104%

O=[N+]([O-])c1cc(Cl)cc([N+](=O)[O-])c1O
inactive: [1] 109% | [2] 103% | [3] 105% | [4] 98.4% | [5] 95.8% | [6] 93.5% | [7] 101% | [8] 89.9% | [9] 96.2% | [10] 104%

COc1cc([N+](=O)[O-])c([N+](=O)[O-])cc1N
inactive: [1] 103% | [2] 112% | [3] 92% | [4] 101% | [5] 101% | [6] 87.7% | [7] 99.3% | [8] 88.7% | [9] 111% | [10] 97.1%

NC1=NCC(Br)CS1 (stereo not given)
inactive: [1] 98.4% | [2] 111% | [3] 75.7% | [4] 105% | [5] 96.5% | [6] 95.6% | [7] 99.6% | [8] 93.7% | [9] 90.6% | [10] 103%

ClP1(Cl)=NP(Cl)(Cl)=NP(Cl)(Cl)=N1
inactive: [1] 91.6% | [2] 98.6% | [3] 114% | [4] 104% | [5] 105% | [6] 95% | [7] 110% | [8] 102% | [9] 92.9% | [10] 114%

ClC1(Cl)SC(Cl)(Cl)C(Cl)(Cl)C1(Cl)Cl
inactive: [1] 97.1% | [2] 95.1% | [3] 80.1% | [4] 106% | [5] 101% | [6] 110% | [7] 110% | [8] 106% | [9] 97% | [10] 113%

COC(=O)C1(C)COP(=O)(N2CCCCCC2)OC1 (stereo not given)
inactive: [1] 104% | [2] 98.1% | [3] 101% | [4] 96.8% | [5] 103% | [6] 108% | [7] 105% | [8] 94.6% | [9] 96.9% | [10] 114%

CCOP(=O)(CCBr)OCC
inactive: [1] 97.9% and 102% | [2] 107% and 112% | [3] 87.2% and 85.7% | [4] 112% and 107% | [5] 99.5% and 97.4% | [6] 94% and 102% | [7] 99.1% and 99.3% | [8] 105% and 109% | [9] 100% and 99.1% | [10] 103% and 106%
